Sequences of proteins named here, by UniProt entry; tags and fusion partners are left off. A line that says so, or that is headed by a name, gives the form on record, which may keep a tag or linker.
UniProt P21917, with tags, fused parts or gaps with the stated changes: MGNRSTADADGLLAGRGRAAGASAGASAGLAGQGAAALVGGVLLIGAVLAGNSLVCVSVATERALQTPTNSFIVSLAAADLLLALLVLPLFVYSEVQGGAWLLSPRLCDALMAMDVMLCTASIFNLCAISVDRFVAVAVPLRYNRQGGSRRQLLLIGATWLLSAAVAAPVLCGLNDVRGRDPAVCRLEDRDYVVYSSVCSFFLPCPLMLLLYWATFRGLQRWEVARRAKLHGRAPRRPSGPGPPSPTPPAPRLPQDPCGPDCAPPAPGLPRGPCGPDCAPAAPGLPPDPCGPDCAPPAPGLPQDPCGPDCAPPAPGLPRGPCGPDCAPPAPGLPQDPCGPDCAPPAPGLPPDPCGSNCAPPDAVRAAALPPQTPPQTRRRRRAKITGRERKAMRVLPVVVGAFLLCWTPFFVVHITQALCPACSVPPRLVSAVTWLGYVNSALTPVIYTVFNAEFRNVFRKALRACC
UniProt P21917, whole entry P18R/N396T: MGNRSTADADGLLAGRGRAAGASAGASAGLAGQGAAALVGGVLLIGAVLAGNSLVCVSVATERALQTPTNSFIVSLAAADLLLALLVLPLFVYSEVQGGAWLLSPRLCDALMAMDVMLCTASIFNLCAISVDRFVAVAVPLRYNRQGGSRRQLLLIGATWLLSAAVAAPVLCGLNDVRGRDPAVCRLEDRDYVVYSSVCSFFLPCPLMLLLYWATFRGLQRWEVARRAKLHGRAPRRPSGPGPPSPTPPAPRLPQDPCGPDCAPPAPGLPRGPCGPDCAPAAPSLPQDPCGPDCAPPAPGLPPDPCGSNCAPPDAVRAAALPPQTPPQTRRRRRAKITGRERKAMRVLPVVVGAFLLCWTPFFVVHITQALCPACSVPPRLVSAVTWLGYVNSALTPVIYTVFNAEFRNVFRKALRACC
UniProt P21917, with tags, fused parts or gaps P18R/DEL271-302/N396T: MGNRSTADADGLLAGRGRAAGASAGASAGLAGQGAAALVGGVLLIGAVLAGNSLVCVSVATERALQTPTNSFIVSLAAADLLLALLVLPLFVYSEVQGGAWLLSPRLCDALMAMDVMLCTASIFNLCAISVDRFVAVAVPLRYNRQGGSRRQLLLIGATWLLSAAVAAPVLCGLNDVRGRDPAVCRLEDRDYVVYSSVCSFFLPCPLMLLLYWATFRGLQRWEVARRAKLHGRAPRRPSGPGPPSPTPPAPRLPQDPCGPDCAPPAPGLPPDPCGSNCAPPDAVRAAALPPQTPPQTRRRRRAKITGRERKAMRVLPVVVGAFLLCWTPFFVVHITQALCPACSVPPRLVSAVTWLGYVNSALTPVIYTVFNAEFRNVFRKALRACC

In US7053189B2 (Oregon Health & Sciences University, priority 1990, dated 2006):

Assays:
[1] = target: human D4 dopamine receptor allele D4.7 (Homo sapiens, UniProt P21917, INS283GLPPDPCGPDCAPPAPGLPQDPCGPDCAPPAPGLPRGPCGPDCAPPAP/N396T/P18R/S284G); settings: D4.7, presence of 120 mM sodium chloride
[2] = target: human D4 dopamine receptor allele D4.4 (Homo sapiens, UniProt P21917, N396T/P18R); settings: D4.4, presence of 120 mM sodium chloride
[3] = target: human D4 dopamine receptor allele D4.2 (Homo sapiens, UniProt P21917, DEL271-302/N396T/P18R); settings: D4.2, presence of 120 mM sodium chloride

O=C(CCCN1CCC2(CC1)C(=O)NCN2c1ccccc1)c1ccc(F)cc1 [[^3H]spiperone]
change of [3H]spiperone dissociation constant [1]: not for D4.7 | change of [3H]spiperone dissociation constant [2]: increased approximately two- to three-fold | change of [3H]spiperone dissociation constant [3]: increased approximately two- to three-fold
